Source: US11440923B2, “Substituted macrocyclic indole derivatives” (Bayer Aktiengesellschaft, priority 2017, dated 2022)
pIC50, pKd: −log10 of the molar value.

Chains of the proteins cited; added tags and fusions are not shown.
UniProt Q07820, whole entry K194A/K197A/R201A, looked up: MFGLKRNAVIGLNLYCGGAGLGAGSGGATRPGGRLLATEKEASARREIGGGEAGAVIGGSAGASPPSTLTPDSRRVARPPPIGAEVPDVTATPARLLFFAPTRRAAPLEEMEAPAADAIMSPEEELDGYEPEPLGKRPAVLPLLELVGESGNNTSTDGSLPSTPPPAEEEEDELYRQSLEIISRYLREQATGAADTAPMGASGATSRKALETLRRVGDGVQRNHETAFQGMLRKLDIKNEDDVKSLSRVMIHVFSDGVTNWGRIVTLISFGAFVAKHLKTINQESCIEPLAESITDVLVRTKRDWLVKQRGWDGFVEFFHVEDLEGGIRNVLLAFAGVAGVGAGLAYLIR
UniProt Q07820, whole entry: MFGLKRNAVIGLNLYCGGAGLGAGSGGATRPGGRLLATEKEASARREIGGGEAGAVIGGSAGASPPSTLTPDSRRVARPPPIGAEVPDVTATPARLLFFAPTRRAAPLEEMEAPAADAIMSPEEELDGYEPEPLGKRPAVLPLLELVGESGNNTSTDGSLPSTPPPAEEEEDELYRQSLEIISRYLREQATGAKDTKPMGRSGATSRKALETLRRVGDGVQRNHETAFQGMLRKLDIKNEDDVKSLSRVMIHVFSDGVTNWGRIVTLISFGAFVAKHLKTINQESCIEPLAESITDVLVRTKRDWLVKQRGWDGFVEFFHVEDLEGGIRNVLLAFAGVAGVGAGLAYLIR

Legend:
[1] = target: MCL-1 (Homo sapiens (Human), UniProt Q07820, K194A/K197A/R201A); experiment: Protein-compound interaction assay (SPR assay, Assay 9); format: binding; settings: 25° C., read-out: KD (geometric mean)
Text: Assay 9 Protein-Compound Interaction Assay (SPR Assay)
The ability of the compounds described in this invention to bind to MCL-1 may be determined using surface plasmon resonance (SPR). This allows for the quantification of binding in terms of the equilibrium dissociation constant (KD [M]), as well as association and dissociation rate constants (kon [1/Ms] and koff [1/s], respectively). The measurements may be performed using Biacore® T200 or Biacore® S200 instruments (GE Healthcare).
Briefly, carboxymethylated dextran biosensor chips (Series S Sensor Chip CMS, GE Healthcare) were activated with 1-ethyl-3-(3-dimethylaminopropyl)-carbodiimide hydrochloride (EDC) and N-hydroxysuccinimide (NHS) according to the supplier's instructions. MBP-MCL-1 was diluted in 1×PBS-P+ (GE Healthcare) and injected on the activated chip surface. Subsequently, a solution of 1 M ethanolamine-HCl (GE Healthcare) was injected to block unreacted groups, resulting in approximately 400-2500 response units (RU) of immobilized protein. A reference surface was generated by treatment with NHS-EDC and ethanolamine-HCl. […] Compounds were injected for 60 s followed by a dissociation time of up to 1000 s. […]

[2] = target: MCL1 protein / biotinylated BIM BH3 peptide in RKO cells (Homo sapiens (Human), UniProt Q07820); experiment: PIxEL: protein-protein interaction in permeabilized cells by ELISA (Assay 5); format: cell-based; settings: read-out: PIxEL IC50 (median)
Experimental: PIxEL: Protein-Protein Interaction in Permeabilized Cells by ELISA
Most MCL1 protein molecules are localized at the mitochondria outer membrane and sequester pro-apoptotic proteins through binding of their BCL2 homology domain 3 (BH3 domain). MEB buffer (150 mM mannitol, 10 mM HEPES pH 7.5, 50 mM KCl, 20 μM EDTA, 20 μM EGTA, 5 mM potassium succinate, 0.1% protease-free BSA (SIGMA) with low dose digitonin (0.002%) permeabilizes plasma membrane while leaves live mitochondria, where MCL1 maintains its native localization and conformation. Unlike biophysical assays (e.g. TR-FRET) that use truncated recombinant MCL1 protein, this assay uses full length endogenous MCL1 protein at mitochondria outer membrane. It measures the interaction between MCL1 protein and biotinylated BIM BH3 peptide. Compounds can compete with BIM BH3 peptide to bind to MCL1 protein.
On day 1, RKO colon cancer cell line cells were plated at 0.8 million cells/ml, 100 μl/well in 96-well flat bottom TC plates (Corning). […]
On the third day, ELISA plates were washed once with 250 μl 1×PBST. […] Plates were shaken for 1 minute then luminescence was measured by Envision plate reader (HP). […] IC50 was calculated using Graphic Pad PRISM software.

Molecule `CCc1c2c(nn1C)C(CCN1CCOCC1)OCC(F)(F)CCn1c(C(=O)O)c(CCCOc3cccc4cc(F)ccc34)c3ccc(Cl)c-2c31` (single isomer, unassigned; (+)) [Example 90, (+)-4-chloro-3-ethyl-12,12-difluoro-7-{3-[(6-fluoronaphthalen-1-yl)oxy]propyl}-2-methyl-15-[2-(morpholin-4-yl)ethyl]-2,10,11,12,13,15-hexahydropyrazolo[4′,3′:9,10][1,6]oxazacycloundecino[8,7,6-hi]indole-8-carboxylic Acid] has a pKd [1] of 9.24.
`CCc1c2c(nn1C)C(CCN1CCOCC1)OCC(F)(F)CCn1c(C(=O)O)c(CCCOc3cccc4cc(F)ccc34)c3ccc(Cl)c-2c31` (centres unmarked) [Example 86, 4-chloro-3-ethyl-12,12-difluoro-7-{3-[(6-fluoronaphthalen-1-yl)oxy]propyl}-2-methyl-15-[2-(morpholin-4-yl)ethyl]-2,10,11,12,13,15-hexahydropyrazolo[4′,3′:9,10][1,6]oxazacycloundecino[8,7,6-hi]indole-8-carboxylic Acid] was tested, and the pIC50 [2] was 7.31.
